The chains behind the UniProt entries cited, without tags or fusion partners. Residues count along the entry.
UniProt Q13153, whole entry: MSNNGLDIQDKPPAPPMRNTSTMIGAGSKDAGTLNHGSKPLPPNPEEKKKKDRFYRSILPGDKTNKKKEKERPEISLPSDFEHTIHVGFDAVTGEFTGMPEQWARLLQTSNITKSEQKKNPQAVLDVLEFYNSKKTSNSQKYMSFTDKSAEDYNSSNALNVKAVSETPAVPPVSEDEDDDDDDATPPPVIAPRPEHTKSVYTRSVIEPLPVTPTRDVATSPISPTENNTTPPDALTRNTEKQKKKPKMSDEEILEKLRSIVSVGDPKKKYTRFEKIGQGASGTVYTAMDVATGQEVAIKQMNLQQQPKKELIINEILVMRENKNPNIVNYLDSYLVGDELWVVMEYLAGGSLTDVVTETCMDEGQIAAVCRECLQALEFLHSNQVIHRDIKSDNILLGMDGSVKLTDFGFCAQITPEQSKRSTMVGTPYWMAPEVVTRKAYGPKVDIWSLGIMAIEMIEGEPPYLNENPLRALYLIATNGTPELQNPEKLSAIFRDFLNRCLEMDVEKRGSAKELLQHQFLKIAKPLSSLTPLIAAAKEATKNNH
UniProt O96013, whole entry: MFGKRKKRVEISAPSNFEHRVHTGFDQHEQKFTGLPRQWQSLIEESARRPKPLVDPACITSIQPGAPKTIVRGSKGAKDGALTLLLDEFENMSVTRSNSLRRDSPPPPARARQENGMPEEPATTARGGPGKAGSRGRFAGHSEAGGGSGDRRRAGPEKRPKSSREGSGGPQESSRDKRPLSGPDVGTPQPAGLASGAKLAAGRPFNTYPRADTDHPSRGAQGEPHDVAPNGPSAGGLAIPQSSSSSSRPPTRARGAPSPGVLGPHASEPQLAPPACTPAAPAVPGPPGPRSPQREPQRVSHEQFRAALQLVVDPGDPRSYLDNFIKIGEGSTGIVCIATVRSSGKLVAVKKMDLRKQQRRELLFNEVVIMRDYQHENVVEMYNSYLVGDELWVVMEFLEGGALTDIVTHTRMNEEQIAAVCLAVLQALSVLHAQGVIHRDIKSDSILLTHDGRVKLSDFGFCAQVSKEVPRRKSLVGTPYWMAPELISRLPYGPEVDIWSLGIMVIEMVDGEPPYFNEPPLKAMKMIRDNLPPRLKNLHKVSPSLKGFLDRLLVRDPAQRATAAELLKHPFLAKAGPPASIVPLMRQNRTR
UniProt O75914, 1-544 isoform 2: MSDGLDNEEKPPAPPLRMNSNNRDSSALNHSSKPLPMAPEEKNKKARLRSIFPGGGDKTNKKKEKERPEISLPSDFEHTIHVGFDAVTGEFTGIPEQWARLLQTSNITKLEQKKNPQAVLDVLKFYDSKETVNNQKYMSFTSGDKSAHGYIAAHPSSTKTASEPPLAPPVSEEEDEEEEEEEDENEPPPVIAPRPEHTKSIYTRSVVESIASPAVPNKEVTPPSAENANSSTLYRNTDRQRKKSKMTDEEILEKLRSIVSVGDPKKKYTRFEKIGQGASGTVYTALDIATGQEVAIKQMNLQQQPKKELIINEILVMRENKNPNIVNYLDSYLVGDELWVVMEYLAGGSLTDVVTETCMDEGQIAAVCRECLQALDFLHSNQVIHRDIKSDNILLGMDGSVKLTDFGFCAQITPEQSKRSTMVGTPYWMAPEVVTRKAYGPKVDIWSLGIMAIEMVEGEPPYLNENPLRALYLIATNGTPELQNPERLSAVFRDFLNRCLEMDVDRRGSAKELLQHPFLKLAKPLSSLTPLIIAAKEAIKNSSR
UniProt Q13177, whole entry: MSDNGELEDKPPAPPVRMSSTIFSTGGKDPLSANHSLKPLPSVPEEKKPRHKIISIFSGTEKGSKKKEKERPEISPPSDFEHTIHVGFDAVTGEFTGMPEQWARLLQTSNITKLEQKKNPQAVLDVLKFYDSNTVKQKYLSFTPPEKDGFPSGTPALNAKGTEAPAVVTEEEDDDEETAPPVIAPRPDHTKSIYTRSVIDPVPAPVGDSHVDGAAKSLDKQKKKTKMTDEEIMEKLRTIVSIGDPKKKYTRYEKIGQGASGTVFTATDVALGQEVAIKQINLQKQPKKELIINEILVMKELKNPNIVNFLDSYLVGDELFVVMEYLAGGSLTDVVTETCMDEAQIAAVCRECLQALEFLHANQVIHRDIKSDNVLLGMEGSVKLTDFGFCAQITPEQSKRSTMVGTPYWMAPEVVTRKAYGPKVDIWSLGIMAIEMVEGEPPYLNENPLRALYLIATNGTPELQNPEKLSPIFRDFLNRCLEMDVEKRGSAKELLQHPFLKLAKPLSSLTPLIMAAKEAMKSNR

In patent US20130116263A1, “PAK INHIBITORS FOR THE TREATMENT OF CELL PROLIFERATIVE DISORDERS” (AFRAXIS, INC., priority 2011, published 2013):

How the values were obtained:
PAK1 = PAK1 (Homo sapiens, UniProt Q13153); test: In vitro PAK inhibition assay (Z'-LYTE, SelectScreen), PAK1; format: biochemical; details: read-out: PAK1 IC50
PAK4 = PAK4 (Homo sapiens, UniProt O96013); test: In vitro PAK inhibition assay (Z'-LYTE, SelectScreen), PAK4; details: read-out: PAK4 IC50
PAK3 = PAK3 (Homo sapiens, UniProt O75914); test: In vitro PAK inhibition assay (Z'-LYTE, SelectScreen), PAK3; details: read-out: PAK3 IC50
PAK2 (PAK65) = PAK2 (PAK65) (Homo sapiens, UniProt Q13177); test: In vitro PAK inhibition assay (Z'-LYTE, SelectScreen), PAK2; format: biochemical; details: read-out: PAK2 IC50

With `O=c1c(-c2ccc(-c3cccnc3F)cc2Cl)cc2cnc(NC3CCOCC3)nc2n1Cc1ccccc1` the IC50 (PAK1) was 50 to 500 nM, the IC50 (PAK4) was > 5000 nM and the IC50 (PAK3) was 50 to 500 nM. The IC50 (PAK2 (PAK65)) was 50 to 500 nM.
